Laboratory results taken from ChEMBL document CHEMBL1129215, “(Dipropylamino)-tetrahydronaphthofurans: centrally acting serotonin agonists and dopamine agonists-antagonists” (Bioorg Med Chem Lett, 1997).
pKi: −log10 of the molar value.

Protein sequences, listed by entry. Tags and fused reporters are not part of them.
UniProt P35462, whole entry: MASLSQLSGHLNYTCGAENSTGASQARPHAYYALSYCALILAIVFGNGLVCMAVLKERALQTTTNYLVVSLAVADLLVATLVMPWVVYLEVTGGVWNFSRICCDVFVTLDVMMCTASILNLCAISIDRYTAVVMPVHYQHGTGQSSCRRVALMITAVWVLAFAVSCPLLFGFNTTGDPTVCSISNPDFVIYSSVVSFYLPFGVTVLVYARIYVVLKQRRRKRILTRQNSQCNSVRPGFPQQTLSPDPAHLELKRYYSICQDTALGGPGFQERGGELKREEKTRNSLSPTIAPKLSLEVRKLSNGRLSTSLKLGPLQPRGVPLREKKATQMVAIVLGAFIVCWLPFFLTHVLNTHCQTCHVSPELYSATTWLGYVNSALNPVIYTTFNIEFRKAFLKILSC
UniProt P08908, whole entry: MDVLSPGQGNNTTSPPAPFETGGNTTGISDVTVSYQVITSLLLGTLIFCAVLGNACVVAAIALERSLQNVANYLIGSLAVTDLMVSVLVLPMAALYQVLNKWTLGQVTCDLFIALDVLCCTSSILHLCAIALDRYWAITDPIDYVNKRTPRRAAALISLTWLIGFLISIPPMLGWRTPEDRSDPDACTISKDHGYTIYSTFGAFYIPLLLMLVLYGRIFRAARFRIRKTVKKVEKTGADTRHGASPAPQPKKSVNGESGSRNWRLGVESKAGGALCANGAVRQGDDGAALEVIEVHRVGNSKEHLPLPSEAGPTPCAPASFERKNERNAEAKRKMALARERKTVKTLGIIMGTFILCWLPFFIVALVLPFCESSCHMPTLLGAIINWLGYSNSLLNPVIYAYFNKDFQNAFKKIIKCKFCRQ

What was measured:
D(3) dopamine receptor = D(3) dopamine receptor (Homo sapiens, UniProt P35462); assay: biochemical
[1] = target: 5-hydroxytryptamine receptor 1A (Homo sapiens, UniProt P08908); assay: Tested in vitro for the inhibition of [3H]8-OH-DPAT binding to 5-hydroxytryptamine 1A receptor, expressed in cloned CHO cells.; format: cell-based

Structure (SMILES)	pKi (D(3) dopamine receptor)	pKi [1]
CCCN(CCC)C1CCc2cccc(O)c2C1 (configuration not stated) [8-OH-DPAT]	6.59	–
CCCN1CC[C@H]2c3c(O)cccc3CC[C@H]21	–	9.70
